Laboratory results: publication PMC2991585

target: actin filament (barbed end) (UniProt P68135); assay: seeded pyrene-actin polymerization

Substance	Kd
CPαβ(N222A/S226A) (from UniProt P47753 1-286; P47757-2 1-272) (complex)	0.25 nM
CPα(ΔC28)β (from UniProt P47753 1-258; P47757-2 1-272) (complex)	2500 nM
CPα(K256A)β (from UniProt P47753 1-286; P47757-2 1-272) (complex)	1.3 nM
CPαβ(K142A) (from UniProt P47753 1-286; P47757-2 1-272) (complex)	0.24 nM
CPα(R260A)β (from UniProt P47753 1-286; P47757-2 1-272) (complex)	2.1 nM
CPα(D270A)β (from UniProt P47753 1-286; P47757-2 1-272) (complex)	0.25 nM
CPαβ(L258S) (from UniProt P47753 1-286; P47757-2 1-272) (complex)	1.3 nM
CPαβ(L258S/L262S/L266S) (from UniProt P47753 1-286; P47757-2 1-272) (complex)	9.7 nM
CPαβ(E256A/N260A) (from UniProt P47753 1-286; P47757-2 1-272) (complex)	0.44 nM
CPα(E200R)β (from UniProt P47753 1-286; P47757-2 1-272) (complex)	4.41 nM
CPαβ(R215A/D219A) (from UniProt P47753 1-286; P47757-2 1-272) (complex)	0.32 nM
CPα(K268A)β (from UniProt P47753 1-286; P47757-2 1-272) (complex)	0.88 nM
CPαβ(E256S/N260S) (from UniProt P47753 1-286; P47757-2 1-272) (complex)	0.36 nM
CPαβ(K235A) (from UniProt P47753 1-286; P47757-2 1-272) (complex)	0.26 nM
CPαβ(R225A) (from UniProt P47753 1-286; P47757-2 1-272) (complex)	1.36 nM
CPαβ(L262S) (from UniProt P47753 1-286; P47757-2 1-272) (complex)	4 nM
CPαβ(L258S/L262S/A265S/L266S) (from UniProt P47753 1-286; P47757-2 1-272) (complex)	6.9 nM
CPα(E200A/D201G)β (from UniProt P47753 1-286; P47757-2 1-272) (complex)	3.7 nM
CPαβ(K199A) (from UniProt P47753 1-286; P47757-2 1-272) (complex)	0.29 nM
CPαβ(L266S) (from UniProt P47753 1-286; P47757-2 1-272) (complex)	2.61 nM

Next, values leading:

Kd	Substance
0.21 nM	CPα(R266A)β (from UniProt P47753 1-286; P47757-2 1-272) (complex)
0.2 nM	CPαβ(A265S) (from UniProt P47753 1-286; P47757-2 1-272) (complex)
0.14 nM	capping protein (mouse CP alpha1/beta2 heterodimer), wild type (from UniProt P47753 1-286; P47757-2 1-272) (complex)
0.24 nM	CPα(E233A/N237A)β (from UniProt P47753 1-286; P47757-2 1-272) (complex)
0.11 nM	CPα(Q248A)β (from UniProt P47753 1-286; P47757-2 1-272) (complex)
0.21 nM	CPα(K273A)β (from UniProt P47753 1-286; P47757-2 1-272) (complex)
0.16 nM	CPαβ(K53A) (from UniProt P47753 1-286; P47757-2 1-272) (complex)
0.2 nM	CPαβ(D200A) (from UniProt P47753 1-286; P47757-2 1-272) (complex)
0.17 nM	CPα(T249A/T253A)β (from UniProt P47753 1-286; P47757-2 1-272) (complex)
0.11 nM	CPαβ(D58A) (from UniProt P47753 1-286; P47757-2 1-272) (complex)
0.16 nM	CPα(T241A/E245A)β (from UniProt P47753 1-286; P47757-2 1-272) (complex)
0.12 nM	CPα(D252A)β (from UniProt P47753 1-286; P47757-2 1-272) (complex)
0.2 nM	CPαβ(K143A) (from UniProt P47753 1-286; P47757-2 1-272) (complex)
